Experimental data: ChEMBL document CHEMBL2073745, “Disruption of the mouse mdr1a P-glycoprotein gene leads to a deficiency in the blood-brain barrier and to increased sensitivity to drugs” (Cell, 1994)

By UniProt entry, the sequences of proteins in these tests, tags left out.
UniProt P21447, whole entry: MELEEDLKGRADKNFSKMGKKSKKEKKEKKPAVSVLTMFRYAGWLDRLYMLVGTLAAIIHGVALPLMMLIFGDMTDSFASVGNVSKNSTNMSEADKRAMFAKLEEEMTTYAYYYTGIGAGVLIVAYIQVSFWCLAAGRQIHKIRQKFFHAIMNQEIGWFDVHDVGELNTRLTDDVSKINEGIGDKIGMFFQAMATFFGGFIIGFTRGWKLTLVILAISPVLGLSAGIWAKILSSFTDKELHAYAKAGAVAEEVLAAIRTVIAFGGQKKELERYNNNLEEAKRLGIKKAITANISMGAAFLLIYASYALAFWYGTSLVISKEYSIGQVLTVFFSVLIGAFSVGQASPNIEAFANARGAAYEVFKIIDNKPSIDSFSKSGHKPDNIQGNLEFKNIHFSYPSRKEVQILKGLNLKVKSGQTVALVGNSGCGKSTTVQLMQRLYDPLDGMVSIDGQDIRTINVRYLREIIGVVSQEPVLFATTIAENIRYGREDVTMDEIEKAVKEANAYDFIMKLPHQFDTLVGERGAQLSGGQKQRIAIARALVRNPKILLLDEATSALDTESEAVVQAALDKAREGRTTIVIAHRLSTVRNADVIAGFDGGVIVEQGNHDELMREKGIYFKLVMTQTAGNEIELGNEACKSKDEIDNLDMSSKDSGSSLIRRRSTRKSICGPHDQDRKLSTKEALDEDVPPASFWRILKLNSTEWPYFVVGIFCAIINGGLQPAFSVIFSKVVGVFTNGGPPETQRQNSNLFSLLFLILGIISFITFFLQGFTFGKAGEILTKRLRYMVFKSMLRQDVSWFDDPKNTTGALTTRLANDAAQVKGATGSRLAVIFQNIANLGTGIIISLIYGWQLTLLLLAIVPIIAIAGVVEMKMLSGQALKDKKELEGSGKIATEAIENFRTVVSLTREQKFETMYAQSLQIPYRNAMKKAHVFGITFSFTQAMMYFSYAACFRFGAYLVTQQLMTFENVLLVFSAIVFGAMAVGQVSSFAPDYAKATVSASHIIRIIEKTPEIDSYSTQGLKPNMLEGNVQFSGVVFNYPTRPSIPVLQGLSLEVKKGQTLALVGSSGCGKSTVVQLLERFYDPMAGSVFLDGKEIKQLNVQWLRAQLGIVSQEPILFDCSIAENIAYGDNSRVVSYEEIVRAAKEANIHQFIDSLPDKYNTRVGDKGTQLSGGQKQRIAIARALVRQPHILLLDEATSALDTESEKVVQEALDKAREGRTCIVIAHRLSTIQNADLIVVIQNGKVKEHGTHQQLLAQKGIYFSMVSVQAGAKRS

Molecular target: ATP-dependent translocase ABCB1 (Mus musculus, UniProt P21447)
Assay: TP_TRANSPORTER: increase in brain concentration in mdr1a(-/-) mouse
Type: functional, organism-based
Conditions: in vivo

IVERMECTIN
Activity: substrate [+]
